Drawing on patent US20100010219A1, “METHOD FOR PRODUCING PYRROLIDINE COMPOUND” (JAPAN TOBACCO INC., priority 2006, published 2010), this text covers IC50 for 1 molecule.

Protein sequences, listed by entry. Tags and fused reporters are not part of them.
UniProt P28845, whole entry: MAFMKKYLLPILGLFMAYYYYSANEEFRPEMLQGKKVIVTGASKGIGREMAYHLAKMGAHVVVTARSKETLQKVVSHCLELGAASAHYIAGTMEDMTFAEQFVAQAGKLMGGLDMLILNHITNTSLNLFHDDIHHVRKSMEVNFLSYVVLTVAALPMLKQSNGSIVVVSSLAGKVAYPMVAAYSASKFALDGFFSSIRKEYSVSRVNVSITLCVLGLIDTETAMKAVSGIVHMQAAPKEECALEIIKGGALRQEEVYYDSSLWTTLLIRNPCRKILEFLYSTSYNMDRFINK

The target of the assay is human HSD-1 (recombinant HSD-1) (Homo sapiens, UniProt P28845). Kind of assay: HSD-1 activity inhibitory action in vitro (SPA, conversion of cortisone to cortisol). To be noted: read-out: hHSD1 (IC50 (nM)); recombinant human HSD-1 expressed using baculovirus system; 10 nM 3H cortisone, 500 μM NADPH; room temperature 90 to 120 min.

With `O=C(OCCO)N1CCC(n2ncc(C(=O)N3CC[C@@H](c4ccccc4C(F)(F)F)C3)c2C2CC2)CC1`, the IC50 – broadly, the concentration that gives 50% inhibition – was below 30 nM.
